Laboratory results published in PMC3412733, “Identification and recombinant expression of anandamide hydrolyzing enzyme from Dictyostelium discoideum” (BMC Microbiology, 2012).

By UniProt entry, the sequences of proteins in these tests, tags left out. Residues count along the entry.
UniProt Q8MMR8, 1-637 limits assumed: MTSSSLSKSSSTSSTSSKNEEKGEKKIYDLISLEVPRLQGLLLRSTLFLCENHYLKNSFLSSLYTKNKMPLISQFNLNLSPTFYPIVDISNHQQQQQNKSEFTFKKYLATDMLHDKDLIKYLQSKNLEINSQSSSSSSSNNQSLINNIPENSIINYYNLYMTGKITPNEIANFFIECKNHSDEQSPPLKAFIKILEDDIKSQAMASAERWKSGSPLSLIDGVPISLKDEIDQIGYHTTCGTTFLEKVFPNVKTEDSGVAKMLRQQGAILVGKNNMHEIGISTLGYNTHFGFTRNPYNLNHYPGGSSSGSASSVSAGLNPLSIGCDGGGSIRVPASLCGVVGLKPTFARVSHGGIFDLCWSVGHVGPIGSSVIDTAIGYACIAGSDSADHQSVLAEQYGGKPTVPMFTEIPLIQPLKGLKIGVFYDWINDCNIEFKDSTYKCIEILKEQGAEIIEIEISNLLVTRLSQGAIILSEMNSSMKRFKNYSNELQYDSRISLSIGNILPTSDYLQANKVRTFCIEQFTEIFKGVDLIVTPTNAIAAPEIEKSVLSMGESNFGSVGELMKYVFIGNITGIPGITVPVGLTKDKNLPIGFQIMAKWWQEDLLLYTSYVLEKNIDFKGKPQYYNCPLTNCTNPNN

Biological target: HIS-FAAH (Dictyostelium FAAH) (Dictyostelium discoideum, UniProt Q8MMR8)
Test: inhibition of ApNA hydrolysis
Settings: 100 μM ApNA, 30 min, 37°C; irreversible, active site targeted

Compound: CCCCC/C=C\C/C=C\C/C=C\C/C=C\CCCCP(=O)(F)OC (stereo not shown)
- % inhibition at 1.0 μM: ~ 63%
